From publication PMC8406418, “Plant-Derived Cyclotides Modulate κ-Opioid Receptor Signaling” (Journal of Natural Products, 2021)
Where two headings read alike, the source gives them in different places.

Amino acid sequences for entries named in this document (tags omitted). A change or cut given only in a name is not applied to a line headed by its entry.
UniProt P33534: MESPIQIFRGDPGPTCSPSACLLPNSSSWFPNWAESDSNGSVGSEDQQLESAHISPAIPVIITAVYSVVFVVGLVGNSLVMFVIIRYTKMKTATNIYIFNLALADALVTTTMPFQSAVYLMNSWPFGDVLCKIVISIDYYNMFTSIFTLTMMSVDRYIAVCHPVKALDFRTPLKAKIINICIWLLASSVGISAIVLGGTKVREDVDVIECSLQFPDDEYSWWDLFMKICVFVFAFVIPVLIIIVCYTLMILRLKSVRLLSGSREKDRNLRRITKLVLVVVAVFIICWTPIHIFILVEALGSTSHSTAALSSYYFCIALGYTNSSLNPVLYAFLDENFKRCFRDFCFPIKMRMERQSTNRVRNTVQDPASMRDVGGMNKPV

What was measured:
mouse KOR [1] = target: T1, mouse KOR (Mus musculus, UniProt P33534)
mouse KOR [2] = target: T1, mouse KOR; remark: listed apart in the source

Compound: CN(C(=O)Cc1ccc(Cl)c(Cl)c1)C1CCCCC1N1CCCC1 (stereo not shown)
- cAMP inhibition Emax ± SD (mouse KOR [1]; U50,488 + 0 μM T20K): 100%
- cAMP inhibition Emax ± SD (mouse KOR [1]; U50,488 + 0.03 μM T20K): 91.1 ± 6.5%
- cAMP inhibition Emax ± SD (mouse KOR [1]; U50,488 + 0.1 μM T20K): 90.0 ± 8.4%
- cAMP inhibition Emax ± SD (mouse KOR [1]; U50,488 + 0.3 μM T20K): 88.2 ± 18.7%
- cAMP inhibition Emax ± SD (mouse KOR [1]; U50,488 + 1 μM T20K): 92.0 ± 12.5%
- arrestin recruitment Emax ± SD (mouse KOR [2]; U50,488 + 0 μM T20K): 100%
- arrestin recruitment Emax ± SD (mouse KOR [2]; U50,488 + 10 μM T20K): 77.3 ± 9.4 %
